The values that follow come from patent US8735360B2 (priority 2009, dated 2014).

Protein sequences, listed by entry. Tags and fused reporters are not part of them. Residues count along the entry.
UniProt P25092, 24-1073 limits assumed: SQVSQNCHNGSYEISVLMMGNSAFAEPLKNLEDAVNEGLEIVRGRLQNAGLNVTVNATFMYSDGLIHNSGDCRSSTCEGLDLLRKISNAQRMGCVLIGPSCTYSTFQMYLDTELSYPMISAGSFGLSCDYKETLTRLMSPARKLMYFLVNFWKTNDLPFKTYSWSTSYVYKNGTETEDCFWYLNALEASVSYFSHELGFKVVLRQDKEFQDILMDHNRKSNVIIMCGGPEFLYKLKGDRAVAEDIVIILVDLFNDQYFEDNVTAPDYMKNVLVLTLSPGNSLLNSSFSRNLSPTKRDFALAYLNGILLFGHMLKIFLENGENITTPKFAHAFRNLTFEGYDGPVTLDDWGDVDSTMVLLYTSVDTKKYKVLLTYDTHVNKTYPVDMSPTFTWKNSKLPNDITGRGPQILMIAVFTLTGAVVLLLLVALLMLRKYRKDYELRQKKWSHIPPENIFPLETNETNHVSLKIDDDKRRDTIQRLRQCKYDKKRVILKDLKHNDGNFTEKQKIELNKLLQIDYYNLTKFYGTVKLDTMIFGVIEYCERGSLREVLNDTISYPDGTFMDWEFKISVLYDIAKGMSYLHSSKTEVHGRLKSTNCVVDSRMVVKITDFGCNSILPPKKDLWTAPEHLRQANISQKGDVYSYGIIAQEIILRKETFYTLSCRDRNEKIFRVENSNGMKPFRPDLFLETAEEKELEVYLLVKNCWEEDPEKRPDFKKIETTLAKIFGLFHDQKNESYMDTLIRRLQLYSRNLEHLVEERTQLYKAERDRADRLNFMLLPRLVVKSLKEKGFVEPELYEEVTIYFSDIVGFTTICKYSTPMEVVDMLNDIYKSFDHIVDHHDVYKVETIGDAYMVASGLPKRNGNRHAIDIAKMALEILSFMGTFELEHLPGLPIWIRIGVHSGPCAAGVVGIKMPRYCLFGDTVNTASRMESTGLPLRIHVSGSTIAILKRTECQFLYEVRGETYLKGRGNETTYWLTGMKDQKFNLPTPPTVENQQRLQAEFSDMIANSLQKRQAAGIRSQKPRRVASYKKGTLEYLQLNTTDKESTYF

Each structure is given as a SMILES string.

The target in assay [1] is T1, GC-C (Homo sapiens, UniProt P25092). In kind it is cell-based. The note with it: cGMP response in T84 cells.
The target in assay [2] is T1, GC-C. In kind it is binding.
The subject of a further assay is female CD-1 mice. In kind it is in vivo. To be noted: oral gavage, % distance travelled by charcoal front in small intestine.

As to `C[C@@H]1NC(=O)[C@@H]2CCCN2C(=O)[C@H](CC(N)=O)NC(=O)[C@@H]2CSSC[C@H](NC(=O)[C@H](CC(=O)O)NC(=O)[C@H](CC(=O)O)NC(=O)[C@@H](C)N)C(=O)N[C@H]3CSSC[C@H](NC1=O)C(=O)N[C@@H]([C@@H](C)O)C(=O)NCC(=O)N[C@H](C(=O)N[C@@H](Cc1ccc(O)cc1)C(=O)O)CSSC[C@H](NC(=O)[C@H](Cc1ccc(O)cc1)NC(=O)[C@H](CCC(=O)O)NC3=O)C(=O)N2` [Peptide 10, dADDCCEYCCNPACTGCY], the “Ratio EC50 pH 8/EC50 pH 5” value on GC-C [1] amounted to 76.4. Moreover, at GC-C [2], the “Ratio Ki pH 8/Ki pH 5” value worked out at 3.87. Moreover, in the assay on female CD-1 mice, the “ED50 in the gastrointestinal transit assay” value is 13.7 µg/kg.
In the case of `CC(C)C[C@@H]1NC(=O)[C@H](CCC(=O)O)NC(=O)[C@@H]2CSSC[C@@H]3NC(=O)[C@H](C)NC(=O)[C@@H]4CCCN4C(=O)[C@H](CC(N)=O)NC(=O)[C@H](CSSC[C@H](NC(=O)[C@H](CC(=O)O)NC(=O)[C@H](CC(=O)O)NC(=O)CCN)C(=O)N2)NC(=O)[C@H](CSSC[C@@H](C(=O)N[C@@H](Cc2ccc(O)cc2)C(=O)O)NC(=O)CNC(=O)[C@H]([C@@H](C)O)NC3=O)NC1=O` [Peptide 15, βADDCCELCCNPACTGCY], the “Ratio EC50 pH 8/EC50 pH 5” value on GC-C [1] turned out to be 110.2.
As for `CC(C)C[C@@H]1NC(=O)[C@H](CCC(=O)O)NC(=O)[C@@H]2CSSC[C@@H]3NC(=O)[C@H](C)NC(=O)[C@@H]4CCCN4C(=O)[C@H](CC(N)=O)NC(=O)[C@H](CSSC[C@H](NC(=O)[C@H](CC(=O)O)NC(=O)[C@H](CC(=O)O)NC(=O)[C@@H](N)CC(=O)O)C(=O)N2)NC(=O)[C@H](CSSC[C@@H](C(=O)N[C@H](Cc2ccc(O)cc2)C(=O)O)NC(=O)CNC(=O)[C@H]([C@@H](C)O)NC3=O)NC1=O` [Peptide 21, DDDCCELCCNPACTGCdY], at GC-C [1], the “Ratio EC50 pH 8/EC50 pH 5” value was found to be 42.4. Also, the “Ratio Ki pH 8/Ki pH 5” value at GC-C [2] was 5.1.
In the same order, the values of `C[C@@H]1NC(=O)[C@@H]2CCCN2C(=O)[C@H](CC(N)=O)NC(=O)[C@@H]2CSSC[C@H](NC(=O)[C@H](CC(=O)O)NC(=O)[C@H](CC(=O)O)NC(=O)[C@H](N)CC(=O)O)C(=O)N[C@H]3CSSC[C@H](NC1=O)C(=O)N[C@@H]([C@@H](C)O)C(=O)NCC(=O)N[C@H](C(=O)N[C@@H](Cc1ccc(O)cc1)C(=O)O)CSSC[C@H](NC(=O)[C@H](Cc1ccc(O)cc1)NC(=O)[C@H](CCC(=O)O)NC3=O)C(=O)N2` [Peptide 6, dDDDCCEYCCNPACTGCY] are 146 and 6.59.
For `CC(C)C[C@@H]1NC(=O)[C@H](CCC(=O)O)NC(=O)[C@@H]2CSSC[C@@H]3NC(=O)[C@H](C)NC(=O)[C@@H]4CCCN4C(=O)[C@H](CC(N)=O)NC(=O)[C@H](CSSC[C@H](NC(=O)[C@H](CC(=O)O)NC(=O)[C@H](CC(=O)O)NC(=O)[C@@H](C)N)C(=O)N2)NC(=O)[C@H](CSSC[C@@H](C(=O)N[C@@H](Cc2ccc(O)cc2)C(=O)O)NC(=O)CNC(=O)[C@H]([C@@H](C)O)NC3=O)NC1=O` [Peptide 14, dADDCCELCCNPACTGCY], the “Ratio EC50 pH 8/EC50 pH 5” value at GC-C [1] is listed as 166.2. Also, at GC-C [2], the “Ratio Ki pH 8/Ki pH 5” value is recorded as 0.52. Besides, in the assay on female CD-1 mice, the “ED50 in the gastrointestinal transit assay” value amounted to 3.04 µg/kg.
In the case of `CC(C)C[C@@H]1NC(=O)[C@H](CCC(=O)O)NC(=O)[C@@H]2CSSC[C@@H]3NC(=O)[C@H](C)NC(=O)[C@@H]4CCCN4C(=O)[C@H](CC(N)=O)NC(=O)[C@H](CSSC[C@H](NC(=O)[C@H](CC(=O)O)NC(=O)[C@H](CC(=O)O)NC(=O)[C@H](N)CC(N)=O)C(=O)N2)NC(=O)[C@H](CSSC[C@@H](C(=O)N[C@@H](Cc2ccc(O)cc2)C(=O)O)NC(=O)CNC(=O)[C@H]([C@@H](C)O)NC3=O)NC1=O` [Peptide 12, dNDDCCELCCNPACTGCY], the “Ratio EC50 pH 8/EC50 pH 5” value on GC-C [1] is given as 96.1. Moreover, the “Ratio Ki pH 8/Ki pH 5” value at GC-C [2] stood at 2.70.
